Biological target: P2X purinoceptor 4 (Homo sapiens, UniProt Q99571)
Assay: Antagonist activity at human P2X4 receptor overexpressed in human 1321N1 cells assessed as inhibition of ATP-induced calcium responses by Fluo-4 AM/Ca2+ Flux assay
Type: cell-based

Compound: Cc1ccccc1CS(=O)(=O)Nc1ccc(N2C(=O)CC(=O)Nc3c2ccc2ccccc32)cc1
- IC50: 15 nM

Compound: O=C1CC(=O)N(c2ccc(NS(=O)(=O)c3ccccc3)cc2)c2ccc3ccccc3c2N1
- IC50: 1620 nM
